Measured values from patent publication US9278960B2, “Quinoline carboxamide and quinoline carbonitrile derivatives as mGluR2-negative allosteric modulators, compositions, and their use” (Merck Sharp & Dohme Corp., priority 2011, dated 2016).

Chains of the proteins cited; added tags and fusions are not shown. Residues count along the entry.
UniProt Q14416, 19-872: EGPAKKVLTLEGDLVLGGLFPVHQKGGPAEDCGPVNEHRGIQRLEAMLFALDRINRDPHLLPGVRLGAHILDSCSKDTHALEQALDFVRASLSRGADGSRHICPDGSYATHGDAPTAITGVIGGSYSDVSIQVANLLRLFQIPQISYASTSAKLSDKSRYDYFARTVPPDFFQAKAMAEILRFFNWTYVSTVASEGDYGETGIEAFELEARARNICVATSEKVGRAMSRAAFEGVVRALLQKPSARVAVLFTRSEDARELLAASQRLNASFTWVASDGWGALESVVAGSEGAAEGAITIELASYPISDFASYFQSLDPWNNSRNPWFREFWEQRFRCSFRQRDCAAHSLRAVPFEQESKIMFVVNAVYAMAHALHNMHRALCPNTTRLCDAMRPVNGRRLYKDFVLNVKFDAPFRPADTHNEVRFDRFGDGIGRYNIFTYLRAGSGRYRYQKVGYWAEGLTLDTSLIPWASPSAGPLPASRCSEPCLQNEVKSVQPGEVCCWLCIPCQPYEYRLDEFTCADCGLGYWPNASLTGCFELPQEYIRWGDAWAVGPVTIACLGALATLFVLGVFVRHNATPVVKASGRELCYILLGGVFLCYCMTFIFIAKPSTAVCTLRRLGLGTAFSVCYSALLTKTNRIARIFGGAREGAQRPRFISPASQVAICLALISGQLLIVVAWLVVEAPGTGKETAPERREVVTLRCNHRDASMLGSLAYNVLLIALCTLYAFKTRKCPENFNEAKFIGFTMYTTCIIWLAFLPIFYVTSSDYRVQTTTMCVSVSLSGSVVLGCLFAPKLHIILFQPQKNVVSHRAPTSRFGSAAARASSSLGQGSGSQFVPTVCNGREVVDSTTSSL

Target: human mGluR2 (Homo sapiens (Human), UniProt Q14416)
Assay: FLIPR Ca2+ mobilization antagonist assay in CHO dhfr- cells expressing recombinant human mGluR2 and Gα16
Type: cell-based
Conditions: antagonist response after addition of 2,500 nM glutamate, Fluo-4 AM, FLIPR384

Point of comparison: `C[C@@H]1CNC(C(F)(F)F)CN1Cc1ccc2c(-c3ccc(F)cc3)cc(C(N)=O)nc2c1` (stereo partly drawn) [Example 4-101, 4-(4-fluorophenyl)-7-{[(2R)-2-methyl-5-(trifluoromethyl)piperazin-1-yl]methyl}quinoline-2-carboxamide], IC50 10 nM. Against it:
- NC(=O)c1cc(-c2cn[nH]c2)c2ccc(CN3CCOC(C(F)(F)F)C3)cc2n1 (stereo not drawn) [Example 4-67, 4-(1H-pyrazol-4-yl)-7-{[2-(trifluoromethyl)morpholin-4-yl]methyl}quinoline-2-carboxamide] — 120-fold higher, 1150 nM
- Cn1cc(-c2cc(C(N)=O)nc3cc(CN4CCC(F)CC4)ccc23)cn1 [Example 4-68, 7-[(4-fluoropiperidin-1-yl)methyl]-4-(1-methyl-1H-pyrazol-4-yl)quinoline-2-carboxamide] — 15-fold higher, 149 nM
- Cn1cc(-c2cc(C(N)=O)nc3cc(CN4CCC(F)(F)CC4)ccc23)cn1 [Example 4-69, 7-[(4,4-difluoropiperidin-1-yl)methyl]-4-(1-methyl-1H-pyrazol-4-yl)quinoline-2-carboxamide] — 4.6-fold higher, 46 nM
- Cn1cc(-c2cc(C(N)=O)nc3cc(CN4CCC(C(F)(F)F)CC4)ccc23)cn1 [Example 4-70, 4-(1-methyl-1H-pyrazol-4-yl)-7-{[4-(trifluoromethyl)piperidin-1-yl]methyl}quinoline-2-carboxamide] — 11-fold higher, 114 nM
- Cn1cc(-c2cc(C(N)=O)nc3cc(CN4CCCC(C(F)(F)F)C4)ccc23)cn1 (stereo not drawn) [Example 4-71, 4-(1-methyl-1H-pyrazol-4-yl)-7-{[3-(trifluoromethyl)piperidin-1-yl]methyl}quinoline-2-carboxamide] — 2.5-fold higher, 25 nM
- Cn1cc(-c2cc(C(N)=O)nc3cc(CN4CCCC(F)C4)ccc23)cn1 (stereo not drawn) [Example 4-72, 7-[(3-fluoropiperidin-1-yl)methyl]-4-(1-methyl-1H-pyrazol-4-yl)quinoline-2-carboxamide] — 24-fold higher, 243 nM
- Cn1cc(-c2cc(C(N)=O)nc3cc(CN4CCCC(F)(F)C4)ccc23)cn1 [Example 4-73, 7-[(3,3-difluoropiperidin-1-yl)methyl]-4-(1-methyl-1H-pyrazol-4-yl)quinoline-2-carboxamide] — 3-fold higher, 30 nM
- CCc1ncc(-c2cc(C(N)=O)nc3cc(CN4CCOC(C(F)(F)F)C4)ccc23)s1 (stereo not drawn) [Example 4-74, 4-(2-ethyl-1,3-thiazol-5-yl)-7-{[2-(trifluoromethyl)morpholin-4-yl]methyl}quinoline-2-carboxamide] — 9.1-fold higher, 91 nM
- CC(C)c1ncc(-c2cc(C(N)=O)nc3cc(CN4CCOC(C(F)(F)F)C4)ccc23)s1 (stereo not drawn) [Example 4-75, 4-[2-(1-methylethyl)-1,3-thiazol-5-yl]-7-{[2-(trifluoromethyl)morpholin-4-yl]methyl}quinoline-2-carboxamide] — 110-fold higher, 1090 nM
- NC(=O)c1cc(-c2cnc(C3CC3)s2)c2ccc(CN3CCOC(C(F)(F)F)C3)cc2n1 (stereo not drawn) [Example 4-76, 4-(2-cyclopropyl-1,3-thiazol-5-yl)-7-{[2-(trifluoromethyl)morpholin-4-yl]methyl}quinoline-2-carboxamide] — 26-fold higher, 261 nM
- CCn1cc(-c2cc(C(N)=O)nc3cc(CN4CCOC(C(F)(F)F)C4)ccc23)cn1 (stereo not drawn) [Example 4-77, 4-(1-ethyl-1H-pyrazol-4-yl)-7-{[2-(trifluoromethyl)morpholin-4-yl]methyl}quinoline-2-carboxamide] — 1.5-fold higher, 15 nM
- CC(C)n1cc(-c2cc(C(N)=O)nc3cc(CN4CCOC(C(F)(F)F)C4)ccc23)cn1 (stereo not drawn) [Example 4-78, 4-[1-(1-methylethyl)-1H-pyrazol-4-yl]-7-{[2-(trifluoromethyl)morpholin-4-yl]methyl}quinoline-2-carboxamide] — 8.1-fold higher, 81 nM
- NC(=O)c1cc(-c2cnn(CC(F)(F)F)c2)c2ccc(CN3CCOC(C(F)(F)F)C3)cc2n1 (stereo not drawn) [Example 4-79, 4-[1-(2,2,2-trifluoroethyl)-1H-pyrazol-4-yl]-7-{[2-(trifluoromethyl)morpholin-4-yl]methyl}quinoline-2-carboxamide] — 16-fold higher, 159 nM
- NC(=O)c1cc(-c2cnn(CF)c2)c2ccc(CN3CCOC(C(F)(F)F)C3)cc2n1 (stereo not drawn) [Example 4-80, 4-[1-(fluoromethyl)-1H-pyrazol-4-yl]-7-{[2-(trifluoromethyl)morpholin-4-yl]methyl}quinoline-2-carboxamide] — 1.5-fold higher, 15 nM
- Cc1ncc(-c2cc(C(N)=O)nc3cc(CN4CCOC(C(F)(F)F)C4)ccc23)o1 (stereo not drawn) [Example 4-81, 4-(2-methyl-1,3-oxazol-5-yl)-7-{[2-(trifluoromethyl)morpholin-4-yl]methyl}quinoline-2-carboxamide] — 160-fold higher, 1630 nM
- NC(=O)c1cc(-c2cnn(C3CC3)c2)c2ccc(CN3CCOC(C(F)(F)F)C3)cc2n1 (stereo not drawn) [Example 4-82, 4-(1-cyclopropyl-1H-pyrazol-4-yl)-7-{[2-(trifluoromethyl)morpholin-4-yl]methyl}quinoline-2-carboxamide] — 19-fold higher, 188 nM
- NC(=O)c1cc(-c2cn[nH]c2)c2ccc(CN3CCO[C@@H](C(F)(F)F)C3)cc2n1 [Example 4-83, 4-(1H-pyrazol-4-yl)-7-{[(2R)-2-(trifluoromethyl)morpholin-4-yl]methyl}quinoline-2-carboxamide] — 51-fold higher, 513 nM
- NC(=O)c1cc(-c2cnn(C(F)F)c2)c2ccc(CN3CCOC(C(F)(F)F)C3)cc2n1 (stereo not drawn) [Example 4-84, 4-[1-(difluoromethyl)-1H-pyrazol-4-yl]-7-{[2-(trifluoromethyl)morpholin-4-yl]methyl}quinoline-2-carboxamide] — within 1.5-fold, 11 nM
- NC(=O)c1cc(-c2cnn(CF)c2)c2ccc(CN3CCO[C@H](C(F)(F)F)C3)cc2n1 [Example 4-85, 4-[1-(fluoromethyl)-1H-pyrazol-4-yl]-7-{[(2S)-2-(trifluoromethyl)morpholin-4-yl]methyl}quinoline-2-carboxamide] — 1.5-fold higher, 15 nM
- NC(=O)c1cc(-c2cnn(CF)c2)c2ccc(CN3CCO[C@@H](C(F)(F)F)C3)cc2n1 [Example 4-86, 4-[1-(fluoromethyl)-1H-pyrazol-4-yl]-7-{[(2R)-2-(trifluoromethyl)morpholin-4-yl]methyl}quinoline-2-carboxamide] — within 1.5-fold, 9 nM
- NC(=O)c1cc(-c2ccc(F)cc2)c2ccc(CN3CCNC(C(F)(F)F)C3)cc2n1 (stereo not drawn) [Example 4-87, 4-(4-fluorophenyl)-7-{[3-(trifluoromethyl)piperazin-1-yl]methyl}quinoline-2-carboxamide] — within 1.5-fold, 14 nM
- NC(=O)c1cc(-c2ccc(F)cc2)c2ccc(CN3CCNCC3C(F)(F)F)cc2n1 (stereo not drawn) [Example 4-89, 4-(4-fluorophenyl)-7-{[2-(trifluoromethyl)piperazin-1-yl]methyl}quinoline-2-carboxamide] — 24-fold higher, 235 nM
- C[C@@H]1CO[C@@H](C(F)(F)F)CN1Cc1ccc2c(-c3cnn(C)c3)cc(C(N)=O)nc2c1 [Example 4-90, 4-(1-methyl-1H-pyrazol-4-yl)-7-{[(2R,5R)-5-methyl-2-(trifluoromethyl)morpholin-4-yl]methyl}quinoline-2-carboxamide] — within 1.5-fold, 8 nM
- C[C@H]1CO[C@@H](C(F)(F)F)CN1Cc1ccc2c(-c3cnn(C)c3)cc(C(N)=O)nc2c1 [Example 4-91, 4-(1-methyl-1H-pyrazol-4-yl)-7-{[(2R,5S)-5-methyl-2-(trifluoromethyl)morpholin-4-yl]methyl}quinoline-2-carboxamide] — within 1.5-fold, 8 nM
- CCN1CCN(Cc2ccc3c(-c4ccc(F)cc4)cc(C(N)=O)nc3c2)CC1C(F)(F)F (stereo not drawn) [Example 4-93, 7-{[4-ethyl-3-(trifluoromethyl)piperazin-1-yl]methyl}-4-(4-fluorophenyl)quino-line-2-carboxamide] — 6.6-fold higher, 66 nM
- CN1CCN(Cc2ccc3c(-c4ccc(F)cc4)cc(C(N)=O)nc3c2)CC1C(F)(F)F (stereo not drawn) [Example 4-94, 4-(4-fluorophenyl)-7-{[4-methyl-3-(trifluoromethyl)piperazin-1-yl]methyl}quinoline-2-carboxamide] — 6.3-fold higher, 63 nM
- Cn1cc(-c2cc(C(N)=O)nc3cc(CN4C[C@H](C(F)(F)F)OC(C)(C)C4)ccc23)cn1 [Example 4-95, 7-{[(6R)-2,2-dimethyl-6-(trifluoromethyl)morpholin-4-yl]methyl}-4-(1-methyl-1H-pyrazol-4-yl)quinoline-2-carboxamide] — within 1.5-fold, 11 nM
- Cn1cc(-c2cc(C(N)=O)nc3cc(CN4C[C@H](C(F)(F)F)OCC4(C)C)ccc23)cn1 [Example 4-96, 7-{[(2R)-5,5-dimethyl-2-(trifluoromethyl)morpholin-4-yl]methyl}-4-(1-methyl-1H-pyrazol-4-yl)quinoline-2-carboxamide] — within 1.5-fold, 8 nM
- C[C@@H]1CN(Cc2ccc3c(-c4cn[nH]c4)cc(C(N)=O)nc3c2)C[C@H](C(F)(F)F)O1 [Example 4-97, 7-{[(2R,6R)-2-methyl-6-(trifluoromethyl)morpholin-4-yl]methyl}-4-(1H-pyrazol-4-yl)quinoline-2-carboxamide] — 26-fold higher, 260 nM
- Cn1cc(-c2cc(C(N)=O)nc3cc(CN4CCOC(CC(F)(F)F)C4)ccc23)cn1 (stereo not drawn) [Example 4-98, 4-(1-methyl-1H-pyrazol-4-yl)-7-{[2-(2,2,2-trifluoroethyl)morph-olin-4-yl]methyl}quinoline-2-carboxamide] — 5.2-fold higher, 52 nM
- CCC1CN(Cc2ccc3c(-c4cnn(C)c4)cc(C(N)=O)nc3c2)CCO1 (stereo not drawn) [Example 4-99, 7-[(2-ethylmorpholin-4-yl)methyl]-4-(1-methyl-1H-pyrazol-4-yl)quinoline-2-carboxamide] — 5.5-fold higher, 55 nM
- CC(C)CC1CN(Cc2ccc3c(-c4cnn(C)c4)cc(C(N)=O)nc3c2)CCO1 (stereo not drawn) [Example 4-100, 7-{[2-(2-methylpropyl)morph-olin-4-yl]methyl}-4-(1-methyl-1H-pyrazol-4-yl)quinoline-2-carboxamide] — 2.4-fold higher, 24 nM
- C[C@@H]1CN(Cc2ccc3c(-c4ccc(F)cc4)cc(C(N)=O)nc3c2)CCN1 [Example 4-103, 4-(4-fluorophenyl)-7-{[(3R)-3-methylpiperazin-1-yl]methyl}quinoline-2-carboxamide] — 11-fold higher, 114 nM
- C[C@H]1CN(Cc2ccc3c(-c4ccc(F)cc4)cc(C(N)=O)nc3c2)CCN1 [Example 4-104, 4-(4-fluorophenyl)-7-{[(3S)-3-methylpiperazin-1-yl]methyl}quinoline-2-carboxamide] — 12-fold higher, 120 nM
- NC(=O)c1cc(-c2ccc(F)cc2)c2ccc(CN3CCN4CCC[C@@H]4C3)cc2n1 [Example 4-105, 4-(4-fluorophenyl)-7-[(8aR)-hexahydropyrrolo [1,2-a]pyrazin-2(1H)-ylmethyl]quinoline-2-carboxamide] — 17-fold higher, 172 nM
